Data taken from paper PMC8126888 (RSC Medicinal Chemistry, 2020).

system: Leishmania infantum MHOM/MA(BE)/67/ITMAP263 intracellular amastigotes; conditions: initial hits, Fig. 2

Structure (SMILES)	Selectivity
COc1cc(S(=O)(=O)N(Cc2ccccc2)Cc2ccccc2)c(OC)cc1C [Compound 6]	> 100
CCCCCOc1cc(C)c(Cl)cc1S(=O)(=O)NCc1cccs1 [Compound 7]	> 100
CCCCCOc1cc(C)c(C)cc1S(=O)(=O)NC1CCCC1 [Compound 8]	> 100
